These results are taken from ChEMBL document CHEMBL4414585, “Inhibition Mechanisms of Indoleamine 2,3-Dioxygenase 1 (IDO1)” (J Med Chem, 2019).

Chains of the proteins cited; added tags and fusions are not shown.
UniProt P14902, whole entry: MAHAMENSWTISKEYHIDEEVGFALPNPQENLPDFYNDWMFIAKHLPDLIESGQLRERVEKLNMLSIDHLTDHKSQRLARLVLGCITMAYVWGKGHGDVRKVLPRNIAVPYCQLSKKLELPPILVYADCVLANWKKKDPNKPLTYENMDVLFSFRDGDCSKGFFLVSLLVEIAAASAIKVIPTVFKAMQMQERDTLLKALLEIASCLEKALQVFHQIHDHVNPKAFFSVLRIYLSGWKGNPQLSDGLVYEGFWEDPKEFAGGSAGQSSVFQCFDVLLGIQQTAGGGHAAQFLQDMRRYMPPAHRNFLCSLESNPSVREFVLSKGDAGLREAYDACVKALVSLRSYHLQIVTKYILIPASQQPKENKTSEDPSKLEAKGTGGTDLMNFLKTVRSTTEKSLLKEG

Assay [1] deals with T1, Indoleamine 2,3-dioxygenase 1 (Homo sapiens, UniProt P14902). Kind of assay: Inhibition of full-length human IDO1 expressed in Escherichia coli Rosetta (DE3) using L-Trp substrate by HPLC analysis.
Assay [2] deals with T1, Indoleamine 2,3-dioxygenase 1. In words: Inhibition of IDO1 in IFN-gamma-stimulated human HeLa cells assessed as decrease in kynurenine levels after 48 hrs. Type of assay: cell-based.

pIC50: −log10 of the molar value.

As for `Oc1ccc(Cl)cc1-c1c[nH]nn1`, the values for the negative-log IC50 (pIC50) in assay [1] and in assay [2] were 7.28 and 7.09, respectively.
